Legend:
[1] = system: panel of murine and human cell lines of cancer, mainly breast cancer; experiment: Flow cytometry / confocal interaction of FITC-labelled HFn with cancer cell lines; type: cell-based
Description: Regarding in vitro activity, HFn interaction with cancer cells was assessed by flow cytometry after incubation of FITC-labelled HFn with a panel of murine and human cell lines of cancer, mainly breast cancer, for 2 h at 4° C. HUVEC cells were selected as healthy cells with high TfR1 expression.

DLS hydrodynamic size = type: physicochemical; conditions: after purification
Text: This process results in a three fold increase in HFn production after scale-up with 1 L bioreactor system. To increase HFn purity we introduced an additional step consisting of a FPLC gel filtration using Superose 6 Increase 10/300 GL column. […] DLS profiles evidenced a uniform monodisperse population with a mean Hydrodynamic size of 11.98. HFn is negatively charged with ζ-potential of −24.8±0.8 mV. Mycoplasma assay and bacterial culture reveal that the HFn product is free of contamination.
The resulting solution was stirred at room temperature for 2 h. In order to remove the excess of doxorubicin (DOX) and the adsorbed molecules, the solution was loaded onto a ZEBA spin desalting column (Thermofisher). This procedure is reproducible and allows to recover about 25% of incubated HFn. The recovery of DOX is about 27%. The mixture of HFn-DOX (ferritin nanoparticle comprising doxorubicin) could be concentrated up to a concentration of 400 μg/mL DOX. The nanodrug can be stored at 4° C. for short storage, or at −20° C. for long storage. Native protein gel electrophoresis and TEM images evidenced that the structural integrity of the HFn-DOX nanocage is retained after loading. DLS profiles evidenced a uniform monodisperse population with a mean Hydrodynamic size of 12.44±1.1 nm. HFn is negatively charged with ζ-potential of −25±0.9 mV.

[2] = Tumor targeting and biodistribution of Alexa fluor 660 labelled HFn in 4T1 tumor bearing mice; type: in vivo, BALB/c female mice
Text: Then, we have assessed the in vivo activity of HFn-DOX nanodrug. We have used as proof of concept an ortotopic allograft breast cancer model obtained by injection of 4T1 cells in the mammary fat pad of 6-8 weeks old BALB/c female mice. This model is characterized by high level of proliferation, migration and invasiveness, DOX-inducible expression of MDR-1 (or P-glycoprotein) and stable luciferase expression. First, we have evaluated tumor targeting and biodistribution of the void HFn. HFn labelled with Alexa fluor 660 were injected into the tail vein of tumor bearing mice. […] There is then a quick disappearance of the fluorescent signal.

[3] = parameters: species or system mice; conditions: mouse, in vivo
Text: (§1) Main end-point were cardiotoxicity and anticancer efficacy. […] Mitochondrial morphology has been checked for cardiotoxicity.

HER2+BC = experiment: HER2+ BC bearing mice, anticancer efficacy; type: in vivo; conditions: 5 times twice a week; HFn-DOX 1 mg/Kg i.v., TZ 5 mg/Kg i.p.
Text: as §1

Row | Substance | specificity of interaction with cell lines ([1]; competition with unlabelled HFn, 2 h at 4° C.) | internalization and colocalization ([1]; confocal microscopy) | mean Hydrodynamic size (DLS hydrodynamic size) | time at which the liver signal completely disappears ([2]; after injection) | tumor tissue penetration ([2]; confocal images on tumor cryosections) | route of excretion ([2]; fluorescence in kidneys, bladder and urine) | accumulation in the liver ([2]; mouse, in vivo) | distribution to lung, brain and heart ([2]; mouse, in vivo) | localization in kidneys and spleen ([2]; mouse, in vivo) | time at which the tumor is reached after injection ([2]; tail vein injection, fluorescence in vivo and ex vivo) | cardiotoxicity by mitochondrial morphology [3] | tumor progression / antitumor potential (HER2+BC)
1 | HFn: recombinant nanocage of the heavy chain of human ferritin produced in E. coli | specific | quickly internalized and colocalize with the transferrin receptor 1 | 11.98 | 48 h | goes deep into the tumor tissue | renal excretion | massive accumulation in the liver | don't seem to be reached by HFn | little localization in kidneys and spleen within the first two hours post injection | 1 h | – | –
2 | TZ: monoclonal antibody Trastuzumab | – | – | – | – | – | – | – | – | – | – | pathological increase in mitochondria area coupled with cristae depletion | good capability to reduce tumor progression

From patent US20210393539A1, “FERRITIN NANOPARTICLES COMPRISING A CHEMOTHERAPEUTIC AGENT” (INTHENA S.R.L., priority 2018, published 2021)
